Values quoted from earlier work as cited in patent US20220192984A1, “PHARMACEUTICAL COMPOSITIONS COMPRISING OTIC THERAPEUTIC AGENTS AND RELATED METHODS” (Frequency Therapeutics, Inc., priority 2018, published 2022).

Details: Table 19, remark in Human Dosage column; cited from earlier work

For `Cc1cc(C)c(CNC(=O)c2cc(Br)c3c(c2C)O[C@@](C)([C@H]2CC[C@H](N(C)C)CC2)O3)c(=O)[nH]1`, the oral bio. is given as “poor oral”.
